Biological target: TAFIa (Homo sapiens (Human), UniProt Q96IY4)
Experiment: TAFIa inhibition, Actichrome plasma TAFI Activity Kit (American Diagnostica)
Type: biochemical
Conditions: chromogenic read-out at 420 nm, 15 min preincubation at room temperature, pH 7.4, duplicate determination
Procedure: The prepared substances were tested for TAFIa inhibition using the Actichrome plasma TAFI Activity Kit from American Diagnostica (Pr. No. 874). This entailed adding 28 μl of assay buffer (20 mM Hepes, 150 mM NaCl, pH 7.4) and 10 μl of TAFIa (American Diagnostica Pr. No. 874TAFIA; 2.5 μg/ml) to 2 μl of 2.5 mM DMSO solution of the substance and incubating in a 96 half-well microtiter plate at room temperature for 15 minutes. The enzyme reaction was started by adding 10 μl of TAFIa developer (prediluted 1:2 with assay buffer). The time course of the reaction was followed at 420 nm in a microtiter plate reader (SpectraMax plus 384; Molecular Devices) for 15 minutes.
The IC50 values were calculated from the averaged values (duplicate determination) of serial dilutions of the substance with the aid of the Softmax Pro software (version 4.8; Molecular Devices).

Chains of the proteins cited; added tags and fusions are not shown. Residues count along the entry.
UniProt Q96IY4, 115-423: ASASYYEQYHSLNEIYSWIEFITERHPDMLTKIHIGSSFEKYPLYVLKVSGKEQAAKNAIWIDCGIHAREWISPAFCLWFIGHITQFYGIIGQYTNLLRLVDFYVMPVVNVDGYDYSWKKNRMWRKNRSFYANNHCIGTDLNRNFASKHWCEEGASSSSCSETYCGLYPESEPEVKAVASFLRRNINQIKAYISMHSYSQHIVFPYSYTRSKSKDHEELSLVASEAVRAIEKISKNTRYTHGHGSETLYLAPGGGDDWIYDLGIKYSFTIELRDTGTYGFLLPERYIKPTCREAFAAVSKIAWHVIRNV

CC(C)[C@H]1COCCCCOC[C@@H](NC(=O)N[C@@H](CCCCN)C(=O)O)C(=O)N1 [Example 6-6, (S)-6-Amino-2-[3-((3S,6R)-3-isopropyl-5-oxo-1,8-dioxa-4-azacyclododec-6-yl)ureido]-hexanoic acid]
IC50: 53 nM
